# Test results as given in US6906170B1, “Anti-inflammatory peptides derived from IL-2 and analogues thereof” (Yeda Research and Development Co. Ltd., priority 1998, dated 2005).
# How the values were obtained:
# human T cells = assay: Induction of T cell adhesion to ECM, FN, LN and CO-IV; type: cell-based; settings: soluble IL-2, 30 min at 37° C.
# Procedure: FIGS. 1A-1B show induction of T cell adhesion to fibronectin (FN), laminin (LN), collagen type IV (CO-IV) (FIG. 1A) and ECM (FIG. 1B) by IL-2. [^51Cr]-Labeled human T cells were seeded onto FN-, LN, CO-IV, and ECM-coated microtiter wells together with IL-2. After 30 min at 37° C., non-adherent T cells were removed, the adherent cells were lysed, and the percentage of T cells that had adhered was determined. One experiment representative of four.
# T cell adhesion assays. Human T cells were purified from the peripheral blood of healthy donors, and T cell adhesion to immobilized protein substrates was examined as follows: Human leukocytes were isolated on a Ficoll gradient, washed, and incubated (2 h, 37° C., 7.5% CO2, humidified atmosphere) on petri dishes. The non-adherent cells were then collected and incubated (1 h, 37° C., 7.5% CO2, humidified atmosphere) on nylon wool columns (Novamed Ltd., Jerusalem, Israel). Unbound cells were eluted from the columns by extensive washings. The resulting cell population was always >92% T cells. […] The adherent cells were lysed, and the resulting supernatants were removed and analyzed in a γ-counter. For each experimental group, the results were expressed as the mean percentage ±SD of bound T cells from quadruplicate wells. […]
# β1 integrins = assay: T cell surface expression of β1 integrins; type: cell-based, human; settings: not shown
substance,measurement,setting,value
IL-2: Recombinant human IL-2 (Chiron B. V.),induction of T cell adhesion to ECM and ECM glycoproteins,human T cells,"induced T cell adhesion to FN, LN, and CO-IV"
same,T cell surface expression of β1 integrins,β1 integrins,did not alter the T cell surface expression of β1 integrins
